GIV Gai3 FP: inhibitors of GIV peptide binding to Galpha-i3, primary screen, biochemical, fluorescence polarization, FITC-GIV GBA peptide, rat Galphai3; 90 min; stronger effect = lower value; scaled: aluminum fluoride 0%, vehicle 100%; percent of control (FP), % (test concentration not listed); 0.42% of 210,000 active; AID 1224905, 2016;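 active = replicate mean at 85% of control or lower, very high polarization wells dropped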;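 also: wells of about 15 µL received 100 nL stock; the first replicate is given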
GIV-Gai FP conf: GIV-Galpha-i3 inhibition, FP confirmation; shares compounds with GIV Gai3 FP; FITC-GIV peptide binding to Galphai3, fluorescence polarization; hits give low values; fluorescence polarization, mP at 100 µM; actives 38% (n = 580);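 active = inhibition score of 15 or more, meaning 100 minus mean polarization as percent of control over three replicates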;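 also: lower mP means peptide displaced from Galphai3 so more inhibition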
GIV Gai AS conf: GIV-Galpha-i3 inhibition, AlphaScreen confirmation; shares compounds with GIV Gai3 FP; AlphaScreen Galphai3-GIV binding, purified proteins, 90 min; hits give low values; AlphaScreen counts at 100 µM; actives 39% (n = 580); AID 1259351;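 active = inhibition score at or above a set limit, where the score is 100 minus the three-replicate mean percent of control signal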
* marks the source's active call; other numbers are inactive results. The full list was thinned out, with hits kept by preference.

SMILES	GIV Gai3 FP	others
COc1ccc2cc(S(=O)(=O)c3ccccc3F)c(=O)oc2c1	100
Cc1ccc(S(=O)(=O)c2cc3ccccc3oc2=O)cc1	98
Clc1cccc(N2CCN(c3nnc4n3CCCCC4)CC2)c1	100
C=CCN1C(=O)S/C(=C\c2cc(OC)ccc2OC)C1=O	112
O=C1S/C(=C\c2ccccc2)C(=O)N1CN1CCOCC1	97
C=CCN1C(=O)S/C(=C/c2ccc(N3CCOCC3)cc2)C1=O	95	GIV-Gai FP conf=87;GIV Gai AS conf=44529
COCCn1c(SCC(C)C)nc2c(-c3ccccc3)cn(C)c2c1=O	102
Cn1cc(/C=C/c2nc3ccccc3c(=O)n2-c2ccc([N+](=O)[O-])cc2)c2ccccc21	102
CCn1c(C)c(/C=C/c2nc3ccccc3c(=O)n2CCCO)c2ccccc21	106
Cc1ccc(-n2c(/C=C/c3c(C)n(C)c4ccccc34)nc3ccccc3c2=O)cc1	88	GIV-Gai FP conf=76;GIV Gai AS conf=36423
COc1ccc(C2CC(=O)C3=C(C2)Nc2onc(C)c2C3c2ccc(O)c(O)c2)cc1OC (configuration not stated)	112
Cc1cc2c(cc1C)C(c1ccc(OC(F)(F)F)cc1)CC(=O)N2 (configuration not stated)	103
O=C(COc1ccc(F)c(Cl)c1)n1cccn1	114
O=C(CCn1cnc2c(-c3ccccc3)noc2c1=O)NC1CC1	95
Cc1ccc(Cc2nc(-c3cccc(NC(=O)Nc4ccccc4)c3)no2)cc1	103
CC1(C)Cc2nc3[nH]c(=O)n(-c4ccccc4)c(=O)c3cc2CO1	105
CC(C)(C)c1ccc(OCCOc2ccccc2C=C2C(=O)NC(=S)NC2=O)cc1	95
O=C1NC(=S)NC(=O)C1=Cc1cccc(O)c1Cl	77*	GIV-Gai FP conf=69;GIV Gai AS conf=4117*
Cc1ccc(OCCOc2ccc(Br)cc2C=C2C(=O)NC(=S)NC2=O)cc1	95
CCOC(=O)c1c(NC(=O)CCCOc2ccc(Cl)cc2Cl)sc(C(=O)Nc2ccccc2F)c1C	100

For convenience, some entries already given.
SMILES	GIV Gai3 FP	others
Cc1ccc(Cc2nc(-c3cccc(NC(=O)Nc4ccccc4)c3)no2)cc1	103
CC1(C)Cc2nc3[nH]c(=O)n(-c4ccccc4)c(=O)c3cc2CO1	105
CC(C)(C)c1ccc(OCCOc2ccccc2C=C2C(=O)NC(=S)NC2=O)cc1	95
O=C1NC(=S)NC(=O)C1=Cc1cccc(O)c1Cl	77*	GIV-Gai FP conf=69;GIV Gai AS conf=4117*
Cc1ccc(OCCOc2ccc(Br)cc2C=C2C(=O)NC(=S)NC2=O)cc1	95
CCOC(=O)c1c(NC(=O)CCCOc2ccc(Cl)cc2Cl)sc(C(=O)Nc2ccccc2F)c1C	100

Following part.
SMILES	GIV Gai3 FP	others
O=C(O)/C=C/C(=O)c1ccccc1	101
O=C(/C=C/Sc1ccccn1)c1ccccc1	86	GIV-Gai FP conf=63;GIV Gai AS conf=40583
O=C(/C=C/Sc1nc2ccccc2o1)c1ccccc1	101
COc1ccc(C(=O)c2sc3nc4c(c(C(F)(F)F)c3c2N)CN(C(C)=O)CC4)cc1OC	217
Cc1cc(C)c2c(N)c(C(=O)Nc3ccccc3)sc2n1	104
COc1ccc(C(=O)c2sc3nc(C)cc(C(F)(F)F)c3c2N)cc1OC	62*	GIV-Gai FP conf=69;GIV Gai AS conf=55081
CCc1nc2sc(C(=O)Nc3cccc(C(F)(F)F)c3)c(N)c2cc1C	108
Cc1cc(C(F)(F)F)c2c(N)c(C(=O)Nc3cccc(C(F)(F)F)c3)sc2n1	82*	GIV-Gai FP conf=63;GIV Gai AS conf=56533
Cc1cc(C(F)(F)F)c2c(N)c(C(=O)c3ccc(Cl)s3)sc2n1	94
O=c1[nH]c2c(s1)C1c3ccccc3OC3CCCC(S2)C31 (configuration not stated)	72*	GIV-Gai FP conf=40*;GIV Gai AS conf=30587
O=C1Oc2ccccc2C2c3sc(=O)[nH]c3SC(c3ccccc3)C12 (configuration not stated)	112
O=C1Oc2ccccc2C2c3sc(=O)[nH]c3SC(c3cccs3)C12 (configuration not stated)	96
COc1cccc(N2CCN(C(=O)c3cc(S(=O)(=O)N4CCCC4)ccc3Cl)CC2)c1	97
Cc1cc2c(C)c(C(=O)N3CCCC3)oc2c(S(=O)(=O)NCc2ccc3c(c2)OCO3)c1C	101
COc1ccccc1N1CCN(C(CNS(=O)(=O)c2c(C)cc(C)cc2C)c2cccnc2)CC1 (configuration not stated)	106
CSc1nc(NCCO)c(C#N)c(-c2ccc(C(C)(C)C)cc2)n1	100
CCCCCCC(=O)Nc1ccc2nc3c(=O)[nH]c(=O)[nH]c3nc2c1	83*	GIV-Gai FP conf=44*;GIV Gai AS conf=16182*
CC(=O)Nc1ccc2oc(C)nc2c1	112
CC(=O)Nc1ccc2sc(C)nc2c1	101
CCCCCC(=O)Nc1ccc(Cc2ccncc2)cc1	100
CCCCC(=O)Nc1cc2[nH]c(=O)[nH]c2cc1C	108
CC(=O)Nc1ccc2nc3c(=O)[nH]c(=O)[nH]c3nc2c1	66*	GIV-Gai FP conf=58*;GIV Gai AS conf=5170*
Cc1ccc(C(=O)N2CCc3ccc(CNC(=O)NC(C)(C)C)cc32)cc1	104
CC(C)(C)c1ccc(-c2nn3cnnc3s2)cc1	105
OCC(CO)(CO)N=Cc1c(O)ccc2ccccc12	104
Oc1ccc2ccccc2c1C=NCc1cccnc1	5.4*	GIV-Gai FP conf=24*;GIV Gai AS conf=5898*
Oc1ccc2ccccc2c1C=NN1CCN(Cc2ccccc2)CC1	101
C=CCn1c(SCC(=O)N2CCOCC2)nnc1-c1cc(Br)ccc1O	99
NC(=O)C1CCN(C(c2ccccc2)c2nnnn2Cc2ccccc2)CC1 (configuration not stated)	103
